Patent US6544541B1, “Devices and compounds for treating arterial restenosis” (Cardiovascular Solutions, Inc., priority 1999, dated 2003)

Tested on: cell proliferation
Test: discussion of anti-proliferative activity and toxicity of guanidine compounds on cells

N=C(N)NCCCCN [agmatine]
inhibition of cell proliferation: ineffective as an inhibitor of cell proliferation

CC(C=NNC(=N)N)=NNC(=N)N [methylGAG, methylglyoxal bis-(guanylhydrazone)]
toxicity: lack of toxicity

benzylguanidine
inhibition of cell proliferation: poor inhibitor of cell proliferation

meta-iodobenzylguanidine
concentration required to inhibit cell proliferation: 10 to 50 µM | toxic concentration (MTT and LDH cytotoxicity assays): > 100 µM
